# AlphaSeq binding of Ab-14 light chain variants to a spike HR2 peptide

The measurements come from Li et al. 2023 (doi:10.1038/s41467-023-39022-2) through the FLAb antibody collection.

The target is the same throughout: PDVDLGDISGINAS, from the HR2 region of SARS-CoV-2 spike.

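The parent was found by panning a naive human phage display library on the peptide. These sequences belong to a second round, designed from the earlier measurements on random variants of the parent. Group labels follow the data file (Ctrl: baseline library sampled from a position-specific scoring matrix, with some repeated check sequences; Rand: our label for a block that the file lists under HC and that is probably the random mutants of the ten best first-round binders; En: ensemble of fine-tuned language models; GP: Gaussian process model; GPLM: also part of the Gaussian process libraries; HC: hill climbing; Gen: genetic algorithm; Gibbs: Gibbs sampling; a sequence that several methods proposed may carry one label only). AlphaSeq pools MATa yeast showing the antibodies with MATalpha yeast showing the peptide. The frequency of each diploid, read from paired DNA barcodes, reflects how well the two displayed proteins bind. Read counts were normalised to the haploid input and turned into Kd by a linear fit to BCL2-family pairs of known affinity, for each replicate. Each pool was mated in six replicate cultures.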

Ab-14 is the parent antibody, in scFv form: VH, then a (GGGGS)3 linker, then VL. The heavy chain is unchanged in all variants.
VH: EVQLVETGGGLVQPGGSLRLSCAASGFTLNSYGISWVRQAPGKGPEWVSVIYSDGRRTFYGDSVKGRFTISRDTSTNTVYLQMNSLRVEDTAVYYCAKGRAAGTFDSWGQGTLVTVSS
VL: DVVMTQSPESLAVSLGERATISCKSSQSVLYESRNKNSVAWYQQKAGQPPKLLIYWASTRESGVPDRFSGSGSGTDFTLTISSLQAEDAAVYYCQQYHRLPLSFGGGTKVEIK

The parent's light chain CDRs are KSSQSVLYESRNKNSVA, WASTRES, QQYHRLPLS; each variant's own CDRs replace them letter for letter. The read-out is the apparent dissociation constant on a log10 scale (nM): the lower, the stronger. Replicates are averaged; those with no signal do not enter the mean. Where no diploid with the target was found in any replicate, the entry reads "not detected": below detection, most likely a poor binder, though not proof of it. Order: sorted from the lowest average up, undetected variants last. A sequence measured in both rounds can read differently, since the two assays cover different ranges. Nonspecific signal, from three strains lacking the peptide, appeared in 4% of pairings of all light chain designs, centred on 2.64 (5% of these signals below 1.59); values are not corrected for it. Also given: how often the same scFv was detected with the empty control strains. The authors averaged sequences with at least three values out of six and counted those with two or fewer as poor binders.

CDR-L1	CDR-L2	CDR-L3	group	log10 Kd (nM), mean	detected	signal with controls
KLSQSVLYESRNKNNVA	DASQRES	QQYHRLPLS	GP_Gen	-0.57	6/6	0/18
KLSESVLYESQNWNNVA	DASTRMS	QQYHRLPLS	GP_Gibbs	-0.45	6/6	1/18
KVSQSFLYESRNKNNVA	EASTRES	QQYHRLPLS	GP_Gen	-0.42	6/6	2/18
KLSQSQLYESRNSKNVA	NASTRVS	QQYHRLPLS	GP_Gibbs	-0.27	6/6	2/18
KLMQSVLYESRNKNSVA	GASTRES	QQYHRLPLS	GP_Gen	-0.22	6/6	3/18
KVSQSVLYESRNSNSVA	EASTRES	QQYHRLPLS	GP_Gen	-0.22	6/6	1/18
KVSQSYLYESRNKWSVA	NASTRES	QQYHRLPLS	GP_Gen	-0.19	6/6	3/18
KVSQSWWYESRNKNSVA	NASQRES	QQYHRLPLS	GP_Gen	-0.18	6/6	0/18
KLSMSEGYESRMKNSVA	EASQREE	QQYHRLPLS	GP_Gibbs	-0.14	6/6	1/18
KFSVSVLYESRNGNSVA	GASTRES	QQYHRLPLS	Ctrl	-0.12	6/6	0/18
KISQSVLYESTNKNSVA	NASTRES	QQYHRLPLS	Ctrl	-0.08	6/6	3/18
KISQSELYESRNKNSVA	EASTRCS	QQYHRLPLS	GP_Gen	-0.07	6/6	2/18
WLSQSVELQSRNKNAVA	SASTRES	QQYHRLPLS	GP_Gibbs	-0.05	6/6	0/18
KLQWYNTYATYSAQNIA	DGAQRLN	QQYMRLPLM	En_Gibbs	-0.05	6/6	0/18
KLSQSVLYESRMKNSVA	NASTRCS	QQYHRLPLS	GP_Gen	-0.04	6/6	0/18
KMSQSVLPESRNKNSVA	EASTRES	QQYHRLPLS	Ctrl	0.03	6/6	1/18
KMEQGVWYESRNKGSVA	GASVRES	QQYHRLPLS	GP_HC	0.08	6/6	1/18
KVSNQADYEDRNKNAVA	DASTRES	QQYHRLPLS	GP_Gibbs	0.11	6/6	4/18
KLSQSELYESRNKNSVA	SASTRLS	QQYHRLPLS	GP_Gen	0.17	6/6	0/18
KLPQSVLYESRNKNSVA	NASTRES	QQYHRLPLS	GP_Gen	0.18	6/6	0/18
KLRMSWLYESRNKNSVA	NASTRES	QQYHRLPLS	GP_HC	0.20	6/6	2/18
KLSQSWLYESRNKNSVA	NASQRLS	QDYHRLPLS	GP_Gen	0.21	6/6	2/18
KISQSYLYEDRAKNSVA	NASTRLW	QQYHRLPLS	GP_Gibbs	0.25	6/6	2/18
KWLQSQEYESRNKNSVA	HASTRED	QQYHALPLS	GP_HC	0.28	6/6	0/18
KLSQSVLYEERNKNSVA	QASTRMS	QQYHRLPLS	GP_Gen	0.28	6/6	0/18
KISQLVNFEGKHKNSVA	QMSTRES	QQYDRLPLS	En_HC	0.29	6/6	0/18
KLPGEQGYESRNKASVA	EASTRES	QQYHRLPLS	GP_Gibbs	0.31	6/6	0/18
KLMQSELYESRNKNSVA	NASTRMS	QQYHRLPLS	GP_Gen	0.35	6/6	3/18
KSSQSVLYESGNKNSVA	NASTRES	QQYHRLPLS	GPLM_HC	0.38	6/6	0/18
KSGQGVLYESRNKNSVA	QASTRES	QQYHRLPLS	GPLM_HC	0.54	6/6	0/18
KMYPSYLYESRNKNSVA	QASTRES	QQYHRLPLS	GP_HC	0.57	6/6	1/18
KVSQSWLYESRMKQSVA	NASERES	QQYHRLPLS	GP_Gibbs	0.61	6/6	1/18
MLGDTVMQGMYSRNSVA	QEETRAE	QQYHHLPLS	En_HC	0.61	2/6	0/18
KFFQSELDEMRNDNSVA	SASTRLS	QQYHRLPLS	GP_Gibbs	0.63	6/6	0/18
KISGMYQKESKNKNSVA	EMVNRES	QQYDRLPLS	En_HC	0.63	6/6	0/18
MISDLTMYGSRNVNSVA	DLSYRGS	QQYHRLPLS	En_HC	0.66	6/6	0/18
KLSQSELYESRNKNSVA	NANTRES	QQYHRLPLS	GP_Gen	0.68	6/6	0/18
KISGPVQYESRNKNSVA	WGSIREK	QQYHSLPLS	Ctrl	0.71	6/6	1/18
KLQQSHLYGSRMKNSVA	HASVRES	QCYHRLPLS	GP_Gibbs	0.72	6/6	4/18
KISQMVKVGATHSNSIA	EEQTRAK	QQYHRLPLS	En_Gen	0.74	6/6	0/18
TISHSTDLESVHKNSIA	DLMTRES	QQYDRLPLS	En_HC	0.75	6/6	0/18
TISQVLNTLTKTGNNVA	DLAERED	QQYFRLPLS	En_Gen	0.76	6/6	0/18
KLSMVTNSEHKVKNSIA	EMVTREV	QQYDRLPLE	En_HC	0.77	6/6	0/18
KSSQSVLFERRNKNSVA	DASFRES	QQYHRLPLQ	Rand	0.80	6/6	0/18
KLSWKSLHGDLRWSAVA	NESVRLA	QQYFRLPIQ	En_Gibbs	0.81	6/6	0/18
KLQQSHLYESRNKNSVA	HASTRLS	QQYHRLPLS	GP_Gen	0.87	6/6	0/18
SIQNLGMVPSVWKNSIA	DVTIVED	QQYSRLPLL	En_Gibbs	0.88	6/6	1/18
TITQFMDNLAKNRNNVA	DTSTLGQ	QSYDRLPLS	En_Gen	0.92	6/6	0/18
KLGEKNRMNGMANKNVA	ASNTRVD	QEYHRLPLI	En_Gibbs	0.92	6/6	0/18
NLSISMLHESINKHSVA	EVRTRES	QQYDRLPLS	En_HC	1.07	6/6	1/18
KTSQSVLYESQNKNSVA	WASTRES	QRYHRLPLS	Ctrl	1.09	5/6	1/18
KSDQSVLYESRNKNSVA	AASTRES	QQYHRLPLD	Ctrl	1.10	6/6	0/18
MVNGIMDHLSKQVNNVA	EMTTREE	QQYERLPLS	En_Gen	1.18	5/6	0/18
TISQVMNTLTRQGNNVA	DLQERES	QQYFRLPLS	En_Gen	1.19	6/6	0/18
TISGMMNSAASKHNSVA	NVTMRPQ	QQYHRLPLS	En_Gen	1.19	6/6	1/18
VIDAFNFSNGQKWNNVA	QTSVRLQ	QSYQRLPLM	En_Gibbs	1.29	6/6	4/18
MISQLYNMGTFAINSVA	QASIRNE	QQYDRLPLS	En_Gen	1.63	6/6	0/18
HMSQVTMYGYWYKNSVA	QTSTREE	QQYDRLPLS	En_HC	1.71	6/6	0/18
MLSQMTGWGMKTSNSVA	QAQTRFN	QQYYRLPLI	En_Gen	1.73	6/6	1/18
HITYGMMVHGRHGSSIA	QAETRAK	QQYDRLPLA	En_Gen	1.76	5/6	0/18
FMDFQDLMWQYDANNIA	GATLSVE	QQYGRLPLT	En_Gibbs	1.79	6/6	0/18
KVSQSEDYESRNKWSVA	NASTRES	QQYHRLPLS	GP_Gibbs	1.83	6/6	0/18
KSDQEVLYESRNKNSVA	WATTRES	QQYHRLPLS	Ctrl	1.93	4/6	0/18
KSSMSVLYESRNKNSVA	WASTRES	QQYHRLPLM	Ctrl	1.95	5/6	1/18
ILEENSDDITEQQNSIA	ETQMVYS	QQYHRLPLA	En_Gibbs	1.99	6/6	0/18
KFSQSNLPESRNKNSVA	WASTRES	QQYFRLPLP	Ctrl	2.18	6/6	1/18
KSSPSVLYESRNKNSVA	MASTRES	QQYHRLPLS	Ctrl	2.28	3/6	0/18
KVQNHSSGTLNDKNAVA	EDKEVAV	QQYVRLPLI	En_Gibbs	2.36	1/6	0/18
KSSQSVLGESRGANSVA	YASTRES	QQYHRLPLS	Ctrl	2.37	4/6	1/18
TISQMTSLFEQSINNVA	EVTTREN	QQYDRLPLI	En_Gen	2.38	4/6	0/18
KLLQEVTGRSQERNSVA	HNSTRED	QQYDRLPLI	En_HC	2.52	6/6	1/18
KLSEIAHFESRKKNSVA	ENSTREQ	QQYDHLPLS	En_HC	2.55	3/6	1/18
KSSQSVLYESRNANSVA	WASTRES	QSYQRLPLS	Ctrl	3.31	1/6	1/18
KSSQSDLGNSRQKNSVA	WASVRES	QQYHRNPLS	Ctrl	not detected	0/6	0/18
KSPQSYLYESRMKNSVA	WASTLES	QQYHRLPLS	Ctrl	not detected	0/6	1/18
KWSISVLYYSRNKNSVA	WASTRES	QQYHRLPLS	Ctrl	not detected	0/6	0/18

Picked from the list: the 11 lowest averages where every replicate gave a value.

CDR-L1	CDR-L2	CDR-L3	group	log10 Kd (nM), mean	detected	signal with controls
KLSQSVLYESRNKNNVA	DASQRES	QQYHRLPLS	GP_Gen	-0.57	6/6	0/18
KLSESVLYESQNWNNVA	DASTRMS	QQYHRLPLS	GP_Gibbs	-0.45	6/6	1/18
KVSQSFLYESRNKNNVA	EASTRES	QQYHRLPLS	GP_Gen	-0.42	6/6	2/18
KLSQSQLYESRNSKNVA	NASTRVS	QQYHRLPLS	GP_Gibbs	-0.27	6/6	2/18
KLMQSVLYESRNKNSVA	GASTRES	QQYHRLPLS	GP_Gen	-0.22	6/6	3/18
KVSQSVLYESRNSNSVA	EASTRES	QQYHRLPLS	GP_Gen	-0.22	6/6	1/18
KVSQSYLYESRNKWSVA	NASTRES	QQYHRLPLS	GP_Gen	-0.19	6/6	3/18
KVSQSWWYESRNKNSVA	NASQRES	QQYHRLPLS	GP_Gen	-0.18	6/6	0/18
KLSMSEGYESRMKNSVA	EASQREE	QQYHRLPLS	GP_Gibbs	-0.14	6/6	1/18
KFSVSVLYESRNGNSVA	GASTRES	QQYHRLPLS	Ctrl	-0.12	6/6	0/18
KISQSVLYESTNKNSVA	NASTRES	QQYHRLPLS	Ctrl	-0.08	6/6	3/18